# Measured values reported in patent publication US6846489B1, “Vaccines containing a saponin and a sterol” (priority 1995, dated 2005).
# Test: Solubility in water
# Assay type: physicochemical
# Procedure: In the presence of phospholipids the cholesterol resides within the phospholipid bilayer which can form a stable suspension of vesicles called liposomes. To avoid the requirement to add phospholipids a soluble derivative was tried. Polyoxyethanyl-cholesterol sebacate is soluble in water at 60 mg/ml however even at a 2000 fold excess (w/w) over QS21 no reduction in the lytic activity of QS21 was detected.
substance,measurement,value
Polyoxyethanyl-cholesterol sebacate,soluble in water,60 mg/mL
